# Data from PubChem BioAssay AID529 (NMMLSC, 2006).
# The chains behind the UniProt entries cited, without tags or fusion partners.
# UniProt P13612, whole entry, looked up: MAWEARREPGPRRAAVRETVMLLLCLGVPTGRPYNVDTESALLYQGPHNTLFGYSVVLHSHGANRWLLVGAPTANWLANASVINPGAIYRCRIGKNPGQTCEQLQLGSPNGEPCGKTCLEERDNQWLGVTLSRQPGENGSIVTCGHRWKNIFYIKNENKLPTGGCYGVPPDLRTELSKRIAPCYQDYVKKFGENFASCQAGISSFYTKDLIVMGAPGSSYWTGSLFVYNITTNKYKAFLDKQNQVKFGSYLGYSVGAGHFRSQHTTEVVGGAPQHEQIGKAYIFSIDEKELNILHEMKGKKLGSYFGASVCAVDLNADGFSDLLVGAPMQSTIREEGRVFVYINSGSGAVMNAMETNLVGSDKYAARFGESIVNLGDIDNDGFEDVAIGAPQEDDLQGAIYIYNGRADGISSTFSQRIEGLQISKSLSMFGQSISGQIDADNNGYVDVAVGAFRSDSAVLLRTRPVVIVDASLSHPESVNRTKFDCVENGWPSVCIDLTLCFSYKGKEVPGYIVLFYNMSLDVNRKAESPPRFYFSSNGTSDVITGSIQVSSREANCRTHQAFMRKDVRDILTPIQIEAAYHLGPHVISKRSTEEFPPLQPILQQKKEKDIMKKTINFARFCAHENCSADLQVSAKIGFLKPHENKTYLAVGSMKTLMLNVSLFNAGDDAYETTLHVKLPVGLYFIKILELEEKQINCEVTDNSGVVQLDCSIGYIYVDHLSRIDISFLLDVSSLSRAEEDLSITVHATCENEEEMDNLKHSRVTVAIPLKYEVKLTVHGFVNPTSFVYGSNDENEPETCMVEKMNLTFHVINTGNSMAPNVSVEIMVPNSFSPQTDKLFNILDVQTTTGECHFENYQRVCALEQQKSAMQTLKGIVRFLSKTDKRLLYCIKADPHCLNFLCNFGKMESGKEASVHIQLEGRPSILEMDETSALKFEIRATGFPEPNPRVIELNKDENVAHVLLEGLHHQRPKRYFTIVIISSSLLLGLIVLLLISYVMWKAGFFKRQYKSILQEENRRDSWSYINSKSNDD
# The list shows a part of the results, in another mix than the full data. Some results for these compounds are left out of this collection, so the calls shown say nothing about other tests. Inconclusive results are not listed. The source made the active and inactive calls.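 The calls were made as follows: active = inhibition above 50%; inconclusive = compound itself fluorescent, judged against control cell fluorescence; inactive = the rest.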
# Target: Integrin alpha-4 (Homo sapiens) (UniProt P13612)
# Assay: blockers of LDV-FITC ligand binding on VLA-4 – Jurkat cells, Mn2+ activated, primary screen (AID 529);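 also: 0% = Mn2+ stimulated cells lacking compound and 100% = ligand binding without Mn2+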
# Details: LDV-FITC binding with Mn2+, flow cytometry, hits give high values, screened at 10 µM (by protocol), 100% = Mn2+-driven binding gain fully reversed
row,Structure (SMILES),inhibition
1,O=C(OC1CN2CCC1CC2)C(CO)(c1ccccc1)c1ccccc1 (stereo unspecified),inactive: -12.5%
